By UniProt entry, the sequences of proteins in these tests, tags left out. Residues count along the entry.
UniProt P06873, 106-384: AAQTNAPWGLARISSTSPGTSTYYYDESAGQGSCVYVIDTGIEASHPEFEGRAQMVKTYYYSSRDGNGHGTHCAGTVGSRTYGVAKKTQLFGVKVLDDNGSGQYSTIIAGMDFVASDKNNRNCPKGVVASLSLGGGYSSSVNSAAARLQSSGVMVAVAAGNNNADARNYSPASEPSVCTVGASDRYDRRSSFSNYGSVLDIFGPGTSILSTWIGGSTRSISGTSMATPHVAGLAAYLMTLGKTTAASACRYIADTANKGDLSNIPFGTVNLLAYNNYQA

In paper PMC10048853, “A Study on the Interactions of Proteinase K with Myricetin and Myricitrin by Multi-Spectroscopy and Molecular Modeling” (International Journal of Molecular Sciences, 2023):

Target: T1, proteinase K (PK) (Parengyodontium album, UniProt P06873)
T1 construct: It is a single-chain protein consisting of 279 amino acid residues and has a molecular weight of 28,930 Da; purchased Jiuding Chemicals (Shanghai, China)
Assay: Fluorescence quenching of proteinase K by MYR/MYT (Stern–Volmer, double-logarithmic and Van't Hoff analysis)
Assay type: binding, Tritirachium album limber
Conditions: double logarithmic equation
From the text: Fluorescence spectroscopy is an effective method used to investigate conformational changes of proteins and binding parameters of ligands to fluorophore residues of proteins such as Trp, Tyr or Phe. PK contains two Trp residues (Trp8 and Trp212), which make it possible to emit fluorescence. The fluorescence emission intensity of PK decreases gradually when MYR or MYT interacts with PK. The process by which this phenomenon occurs is called fluorescence quenching, which is the result of the altered microenvironment of PK. To eliminate the interference of fluorescence quenching from the inner filter effect, the experiments were corrected for fluorescence intensity using Equation (1). (1) Fcorr=Fobs×e^(Aex+Aem)/2 where Fcorr and Fobs are the fluorescence emission intensity values of the corrected and pre-corrected systems, respectively. Aex and Aem are the UV–Vis absorption intensities of quencher and PK at excitation and emission wavelengths, respectively.
To investigate the differences in the fluorescence quenching patterns of the PK-MYR and PK-MYT complexes, the Stern–Volmer equation (Equation (2)) was used for analysis. (2) F0/F=1+Kqτ0[Q]=1+Ksv[Q] where F and F0 are the fluorescence emission intensities of PK in the presence or absence of the quencher (MYR or MYT), respectively, [Q] is the concentration of the quencher, Ksv is the ratio of the bimolecular quenching model constant to the single-molecule decay rate constant, namely, the Stern–Volmer equation quenching constants, Kq is the fluorescence quenching rate constant, and τ0 is the average lifetime of the fluorescent molecule when no quencher is added, while the average lifetime of biological macromolecules is 1 × 10^−^8 s.
Fluorescence quenching could be categorized into two processes, namely dynamic quenching and static quenching. Dynamic quenching occurs when the quencher collides with biological macromolecules, while static quenching is caused by the formation of complexes. […]
The binding constants and the number of binding sites can be calculated by using a double logarithmic equation [20, 21] […]

Question: What does the source list for Myricitrin [MYT]?
Answer: binding constant KA (T 290 K): 8.78 10^4 L·mol^−1; binding constant KA (T 300 K): 2.43 10^4 L·mol^−1; binding constant KA (T 310 K): 0.53 10^4 L·mol^−1
